# Earlier results as cited in patent US20060150828A1, “Dried infant cereal compositions” (Beech-Nut Nutrition Corporation, priority 2005, published 2006).
# Conditions: storage at 37° C., precooked whole wheat flour containing the iron salt
substance,measurement,value
Ferric pyrophosphate,pentane formation (fat oxidation),generated far less pentane
